Publication PMC8018780, “Two peptides targeting endothelial receptors are internalized into murine brain endothelial cells” (PLoS ONE, 2021)

Experiments:
bEnd.3 cells [1] = experiment: Paracellular permeability of 4 kDa dextran (Transwell); format: in vitro ADME, mouse
Method: The following equations [27] were used to calculate the permeability coefficient: Papp[cm/s]=B/T⋅vb/A⋅t⋅60 (1) Where Papp is the apparent permeability, B is the relative fluorescence unit (RFU) at time t, T is the top chamber RFU at time 0 (constant), Vb is the volume of the bottom channel [ml], A is the cross-section area of the membrane [cm^2], and t is the time [min].
The final endothelial permeability (Pe) was calculated based Eq (2): 1/Pe=1/Papp, bEnd.3+filter−1/Papp, filter (2) Where Papp, bEnd.3+filter is the apparent permeability of the bEnd.3 model (cells + filter), and Papp, filter is the apparent permeability of the collagen-coated blank porous membrane.
The paracellular permeability of fluorescein isothiocyanate (FITC) labeled 4 kDa dextran (FD4, Sigma Aldrich) to determine the tightness of our bEnd.3 model.
The bEnd.3 cells were cultured with rat astrocytes as described above. On the day of the experiment, the inserts were transferred to a new astrocyte-free plate, and the medium was changed on both the apical and basolateral sides. To initiate the permeability experiment and avoid the temporary disruption of the barrier, 50 μL medium was removed from the apical side and 50 μL 200 μM working solution of 4kDa FITC-dextran was added to the upper well, i.e. the apical well had 500 μl 10 μM 4kDa FITC-dextran. In every 15 min for a period of 60 min, starting from 0 min, 100 μl medium was removed from the basolateral side. At the final time point, 100 μl medium was also removed from the apical compartment. The fluorescence intensity of the sample was read by a CLARIOstar® Plus microplate reader (BMG Labtech) (λExc = 485 nm, λEm = 515 nm, Bandwidth = 15 and 20 nm, respectively), and the paracellular permeability was calculated according to Eqs (1) and (2). The permeability experiments were repeated three times in technical triplicates, and the data are represented as mean (SD).

bEnd.3 cells [2] = conditions: literature, mean (SD); cited from earlier work
Description: Using solid-phase synthesis, we conjugated the photostable TAMRA fluorophore at either the N- or C-terminus of MTfp and GYR, respectively. By doing so, we could track the live uptake of these relevant brain-targeting peptides in vitro. Previously only quantitative assays have documented their improved BBB translocation, but fluorescence microscopy enables studies on uptake dynamics as well as intracellular localization and sorting. One observation made was that a significant fraction of the peptide was co-localized with the endo-lysosomal system. Ideally, the peptide s ...

Papp, bEnd.3+F (apparent permeability through bEnd.3 grown on filter) (bEnd.3 cells [1]; bEnd.3 cultured with rat astrocytes, polyester Transwell 0.4 μm, 10 μM apical, 60 min, fluorescence Ex 485/Em 515 nm, mean (SD) of three independent experiments with triplicates): 3.32 (0.48) x 10^−6 cm/s
Papp,F (apparent permeability through filter) (bEnd.3 cells [1]; cell-free collagen-coated polyester Transwell filter, 0.4 μm pores, 10 μM apical, sampled every 15 min for 60 min, fluorescence Ex 485/Em 515 nm, mean (SD) of three independent experiments with triplicates): 8.49 (1.90) x 10^−6 cm/s
Papp across empty filter relative to Papp of MTfp (bEnd.3 cells [1]; cell-free collagen-coated polyester filter): 1.45 times
Pe ("real" endothelial permeability) (bEnd.3 cells [1]; paracellular marker, 1/Pe = 1/Papp,bEnd.3+filter − 1/Papp,filter, 10 μM apical, 60 min, mean (SD) of three independent experiments with triplicates): 5.79 (0.44) x 10^−6 cm/s
Substance: FITC-Dextran
Mean Pe (bEnd.3 cells [2]): 2.91 (0.43) x 10^−6 cm/s
